In ChEMBL document CHEMBL4325935, “Molecular Basis for the Selective Inhibition of Histone Deacetylase 6 by a Mercaptoacetamide Inhibitor” (ACS Med Chem Lett, 2018):

Target: T1, Histone deacetylase 8 (Homo sapiens, UniProt Q9BY41)
T1 sequence (Q9BY41 whole entry): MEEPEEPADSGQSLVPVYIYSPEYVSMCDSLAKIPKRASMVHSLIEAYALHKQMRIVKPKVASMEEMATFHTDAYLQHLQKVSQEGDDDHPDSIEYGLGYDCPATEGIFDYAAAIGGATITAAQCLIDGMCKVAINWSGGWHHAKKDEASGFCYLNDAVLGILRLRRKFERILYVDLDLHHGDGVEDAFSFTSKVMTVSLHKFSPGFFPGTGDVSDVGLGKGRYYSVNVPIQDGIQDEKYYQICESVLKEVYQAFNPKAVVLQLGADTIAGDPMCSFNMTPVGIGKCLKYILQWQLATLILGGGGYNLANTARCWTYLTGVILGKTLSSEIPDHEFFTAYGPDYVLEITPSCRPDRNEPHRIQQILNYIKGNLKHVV
Test: Inhibition of full length human N-terminal FLAG-tagged HDAC8 (1 to 377 residues) expressed in HEK293 cells preincubated for 15 mins followed by Boc-[trifluoroacetyl-Lys]-AMC substrate addition measured after 30 mins by fluorimetric method
Format: cell-based

IC50: 669 nM
Structure (SMILES): O=C(CCCCCCC(=O)Nc1ccccc1)NO [VORINOSTAT]
